Key:
[1] = test system: ERs (ERa and ERb); experiment: Fluorescence polarization competitive binding with E2-FITC in cytosolic fractions from MCF-7 cells; design: species or system human
[2] = test system: MDA-MB-231 cells; experiment: Cell viability assay, 24 hour treatment; settings: read-out: IC50 (µM), cell viability; MDA-MB-231, 24 hours
[3] = biological target: HiBiT-ERα (Homo sapiens, UniProt P03372); experiment: Nano-BiT binary luminescence complementation, transfected HEK-293 cells, total receptor; format: cell-based
[4] = biological target: HA-CXCR4 (Homo sapiens, UniProt P61073); experiment: Immunofluorescence with HA antibody, stably transfected HEK293 cells; settings: 100 µM, 1 hour
[5] = biological target: HA-b1AR (Homo sapiens, UniProt P08588); experiment: as above; settings: 100 µM, 1 hour
[6] = test system: HCC1806 cells; experiment: Cell cycle analysis, propidium iodide, flow cytometry; settings: HCC1806, 10 µM, 24 hours
[7] = test system: MCF-7 cells; experiment: as above; settings: MCF-7, 10 µM, 24 hours
[8] = test system: MDA-MB-231 cells; experiment: as above; settings: MDA-MB-231, 10 µM, 24 hours
[9] = test system: SKBR3 cells; experiment: as above; settings: SKBR3, 10 µM, 24 hours

Sequences of proteins named here, by UniProt entry; tags and fusion partners are left off.
UniProt P03372, whole entry: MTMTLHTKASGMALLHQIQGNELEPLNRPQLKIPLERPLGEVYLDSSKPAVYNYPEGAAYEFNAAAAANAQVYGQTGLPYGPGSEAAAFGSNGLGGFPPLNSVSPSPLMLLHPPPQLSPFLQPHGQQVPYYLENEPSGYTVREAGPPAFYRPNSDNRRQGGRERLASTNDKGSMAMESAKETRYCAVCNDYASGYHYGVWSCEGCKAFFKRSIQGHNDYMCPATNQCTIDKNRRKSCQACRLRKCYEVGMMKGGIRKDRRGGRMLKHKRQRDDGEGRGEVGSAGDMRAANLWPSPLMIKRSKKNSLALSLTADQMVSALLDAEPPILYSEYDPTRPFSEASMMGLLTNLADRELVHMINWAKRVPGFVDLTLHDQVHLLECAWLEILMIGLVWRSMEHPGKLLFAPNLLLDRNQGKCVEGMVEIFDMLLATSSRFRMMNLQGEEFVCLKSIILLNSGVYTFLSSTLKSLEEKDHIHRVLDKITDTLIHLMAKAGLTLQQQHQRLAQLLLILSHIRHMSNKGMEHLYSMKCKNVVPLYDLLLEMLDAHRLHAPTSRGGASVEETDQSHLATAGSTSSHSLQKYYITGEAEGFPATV
UniProt P61073, whole entry: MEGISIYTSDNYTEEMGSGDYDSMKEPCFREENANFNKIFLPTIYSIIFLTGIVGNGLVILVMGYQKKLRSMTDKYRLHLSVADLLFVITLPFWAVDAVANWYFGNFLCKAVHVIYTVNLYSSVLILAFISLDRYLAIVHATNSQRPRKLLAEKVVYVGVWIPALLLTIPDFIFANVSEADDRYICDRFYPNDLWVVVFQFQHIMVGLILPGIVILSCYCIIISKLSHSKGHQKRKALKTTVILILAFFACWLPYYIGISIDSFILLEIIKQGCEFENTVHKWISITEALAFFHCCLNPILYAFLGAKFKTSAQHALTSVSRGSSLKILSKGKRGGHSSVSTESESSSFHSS
UniProt P08588, whole entry: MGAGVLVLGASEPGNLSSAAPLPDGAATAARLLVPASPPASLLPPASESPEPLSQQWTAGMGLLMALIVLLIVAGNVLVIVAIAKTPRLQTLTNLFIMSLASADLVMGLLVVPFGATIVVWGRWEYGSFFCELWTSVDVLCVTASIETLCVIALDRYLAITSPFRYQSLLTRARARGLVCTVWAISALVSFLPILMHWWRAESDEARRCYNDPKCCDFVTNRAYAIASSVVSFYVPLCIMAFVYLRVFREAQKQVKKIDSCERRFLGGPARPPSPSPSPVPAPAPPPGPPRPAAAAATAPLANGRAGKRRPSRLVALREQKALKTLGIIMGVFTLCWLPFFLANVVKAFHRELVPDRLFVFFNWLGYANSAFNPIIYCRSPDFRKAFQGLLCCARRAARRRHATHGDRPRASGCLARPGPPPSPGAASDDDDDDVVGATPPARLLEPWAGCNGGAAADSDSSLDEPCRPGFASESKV

## Cc1ncsc1-c1ccc(CNC(=O)[C@@H]2C[C@@H](O)CN2C(=O)[C@@H](NC(=O)COCCOCCOCCOCC(=O)NCCOCCOCCOCCOCCOCCOCCOCCOCC(=O)O[C@H]2CC[C@H]3[C@@H]4CCc5cc(O)ccc5[C@H]4CC[C@]23C)C(C)(C)C)cc1
[1]; IC50 of 17β-E2 divided by IC50 of test compound
  RBA%, ERs: 49%
[1]; read-out: IC50 (nM), ERs, MCF-7 cytosolic fraction, 10 nM E2-FITC, mean ± SD of triplicates
  IC50: 11.4 nM
[1]; read-out: binding dissociation constant (Kd), ER, MCF-7 cytosolic fractions, E2-FITC
  Kd: 11.4 nM
[2]
  IC50: > 100 µM
[3]; 100 µM, as early as 1 h
  reduction in expression level of recombinant ER: 50%
[3]; increasing doses, 1 hour, partial PROTAC 100 µM
  change of HiBiT-ERα: dose-dependent decrease
[4]
  off-target degradation of HA-CXCR4: without detectable off-target degradation
[5]
  off-target degradation of HA-b1AR: without detectable off-target degradation
[6]
  cell cycle distribution: dramatic increase in the G2/M peak
[7]
  cell cycle distribution: dramatic increase in the G2/M peak
[8]
  cell cycle distribution: This shift was not observed
[9]
  cell cycle distribution: dramatic increase in the G2/M peak

Reference: US20230312639A1, “GPER PROTEOLYTIC TARGETING CHIMERAS” (University of Iowa Research Foundation, priority 2020, published 2023)
